In patent publication EP2924037A1, “QUINAZOLINE DERIVATE AND USE THEREOF AS APOPTOSIS INHIBITOR” (Linx Pharmaceutical Co., Ltd., priority 2012, dated 2013):

Legend:
[1] = target: T1, pgk1 (Mus musculus, UniProt P09411); settings: mouse pgk1 expressed and purified from bacteria, terazosin agarose beads
T1 sequence (P09411 1-417): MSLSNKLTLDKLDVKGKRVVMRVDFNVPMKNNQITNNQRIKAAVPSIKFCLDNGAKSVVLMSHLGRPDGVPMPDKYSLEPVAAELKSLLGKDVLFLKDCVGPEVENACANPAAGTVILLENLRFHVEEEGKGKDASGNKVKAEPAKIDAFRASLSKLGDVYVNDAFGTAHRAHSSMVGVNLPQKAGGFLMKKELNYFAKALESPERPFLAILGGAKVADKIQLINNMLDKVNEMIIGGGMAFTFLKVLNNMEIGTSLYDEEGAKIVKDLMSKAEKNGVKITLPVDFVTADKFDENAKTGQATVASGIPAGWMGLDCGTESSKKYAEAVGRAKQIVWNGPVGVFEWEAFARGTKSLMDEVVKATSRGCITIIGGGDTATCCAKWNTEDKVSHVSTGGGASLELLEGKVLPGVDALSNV

[2] = target: T1, pgk1; assay: Activity assay of pgk1 (GAPDH-coupled, absorbance at 340 nm); format: biochemical; set-up: His; made in house; host or cells: E. coli
Procedure: The recombinant mouse pgk1 protein (His-pgk1) was expressed in the E. Coli. The protein was purified by a Nickel column. The proteins were diluted to 0.15 unit /mL. Then, different concentrations of terazosin were added to determine the pgk1 activity.
According to the components of Colorimetric GAPDH Assay Kit (ScienCells), the reaction solution was prepared with solutions of GAPDH, HEPES, and MgSO4. A predetermined concentration of the compound of Formula I was added to the reaction solution (30 mM Hepes, 3 mM ATP, 0.22 mM NADH, 10 mM MgSO4, 10 mM 3-PGA, 3-4 U/ml GAPDH, pH 7.5). Absorbance was measured at 25 °C with a spectroscope (340 nm). Relative activity of pgk1 was calculated based on the changes of absorbance value within 1-10 minutes. The activity has a positive correlation with the changes of absorbance value. The absorbance of the same compound at 340 nm was subtracted in the test group.

COc1cc2nc(N3CCN(C(=O)C4CCCO4)CC3)nc(N)c2cc1OC (stereo not drawn) [Co.33, (4-(4-amino-6,7-dimethoxyquinazolin-2-yl)piperazin-1-yl)(tetrahydrofuran-2-yl)methanone]
direct binding to pgk1 [1]: can directly bind pgk1 in vitro | effect on the enzymatic activity of pgk1 ([2]; 0.4µM terazosin, in vitro): reduced the extent to which the enzymatic activity of pgk1 can be increased | fold induction at 0.05 µM ([2]; read-out: increase of the enzymatic activity of pgk1): ~3
